Assay results reported in patent US20240376189A1.

Molecular target: human C5 (human) (UniProt P01031)
Experiment: cell-based or functional assay

Substance: Soliris (antibody)
- Sheep RBC lysis assay IC50: 1.23 µg/mL
